Reference: PubChem BioAssay AID1531 (NMMLSC, 2009)
The entries are a selection whose mix differs from that of the whole data set. Calls of active or inactive are those of the source. No stated cut-off is given here; in the data, active means binding response below about 67% or above about 130%; inconclusive means no clear call, values can overlap the other calls; inactive means in between.

These compounds were tested against Mitogen-activated protein kinase kinase kinase 2 (Homo sapiens) (UniProt Q9Y2U5) (assay: modulators of MEK5 binding to wildtype MEKK2, primary screen, biochemical, multiplex bead flow cytometry, Alexa488-MEK5 (AID 1531)). Conditions: Alexa488-MEK5 binding to MEKK2 WT, at 10 µM, actives lie on both sides.

Compound	binding response (% of control)
N#Cc1ccc(C(=O)NCC2(N3CCCCC3)CCCCC2)cc1	inactive: 109%
CC(C)(C)OC(=O)N1CCC(N(C(=O)c2ccccc2)c2ccc(Cl)cc2)CC1	inactive: 93%
CN(C)C1(CNC(=O)c2cccc(C#N)c2)CCCCC1	inactive: 101%
CCCN1CCC(Nc2cc(OC)cc(OC)c2)CC1	inactive: 112%
c1ccc(CN2CCC(Nc3ccccc3)CC2)cc1	inactive: 98%
COc1ccc(C(=O)NCC2(N3CCOCC3)CCCCC2)cc1OC	inactive: 80%
O=C(OC1CN2CCC1CC2)C1c2ccccc2C=Cc2ccccc21 (centres undefined)	inactive: 112%
CCOC(=O)N1CCC(Nc2ccc(C)cc2)CC1	inactive: 108%
O=C(O)C1(Nc2ccccc2)CCN(Cc2ccccc2)CC1	inactive: 103%
CC(C)(C)OC(=O)N1CCC(Nc2ccccc2)CC1	inactive: 98%
CCCOc1ccc(C(=O)NCC2(N(C)C)CCCCC2)cc1	inactive: 109%
CN1CCC(Nc2ccc(F)c(Cl)c2)CC1	inactive: 105%
CCOc1ncccc1C(=O)NCC1(N2CCOCC2)CCCCC1	inactive: 91%
CN1CCC(Nc2ccc(Cl)cc2)CC1	inactive: 106%
CCCOc1ccc(C)cc1CN(CCCl)CCCl	inactive: 97%
COc1cc(OC)cc(C(=O)NCC2(N3CCOCC3)CCCCC2)c1	inactive: 96%
COc1cccc(C(=O)N(c2cc(C)cc(C)c2)C2CCN(C(=O)OC(C)(C)C)CC2)c1	inactive: 96%
CCC(CO)(C(=O)OC1CN2CCC1CC2)c1ccccc1 (centres undefined)	inactive: 105%
Fc1ccccc1NC1CCN(Cc2ccccc2)CC1	inactive: 99%
COc1cc(OC)cc(C(=O)NCC2(N3CCCCC3)CCCCC2)c1	inactive: 104%
CN(C)c1ccc(C(=O)NCC2(N3CCCCC3)CCCCC2)cc1	inactive: 100%
CCN1CCC(Nc2cccc(F)c2)CC1	inactive: 97%
COc1ccc(NC2CCN(CCc3ccccc3)CC2)c(OC)c1	inactive: 118%
CCOC(=O)N1CCC(Nc2ccc(F)cc2)CC1	inactive: 104%
O=C(NCC1(N2CCCCC2)CCCCC1)c1ccc(F)cc1	inactive: 100%
CCOc1ccc(C)cc1CN(CCCl)CCCl	inactive: 98%
Cc1ccc(OCC(C)C)c(CN(CCCl)CCCl)c1	inactive: 106%

Compound	binding response (% of control)
CCOC(=O)N1CCC(Nc2cccc(C)c2)CC1	inactive: 104%
COc1cc(C(=O)NCC2(N(C)C)CCCCC2)ccc1OC(F)F	inactive: 100%
CSc1ccccc1C(=O)NCC1(N2CCCCC2)CCCCC1	inactive: 103%
COc1ccc(C(=O)NCC2(N3CCCCC3)CCCCC2)c(OC)c1OC	inactive: 104%
CC(C)(C)OC(=O)N1CCC(N(C(=O)c2ccccc2)c2ccc(F)cc2)CC1	inactive: 100%
COc1ccc(C(=O)NCC2(N3CCCCC3)CCCCC2)cc1	inactive: 104%
O=C(NCC1(N2CCCCC2)CCCCC1)c1ccc(=O)[nH]c1	inactive: 105%
N#CC1(Nc2ccccc2)CCN(Cc2ccccc2)CC1	inactive: 107%
O=C(OC1CN2CCC1CC2)C1c2ccccc2Oc2ccccc21 (centres undefined)	inactive: 117%
CCOC(=O)N1CCC(Nc2ccc(OC)cc2)CC1	inactive: 98%
Cc1cc(C)cc(N(C(=O)c2ccccc2)C2CCN(C(=O)OC(C)(C)C)CC2)c1	inactive: 107%
O=C(NCC1(N2CCOCC2)CCCCC1)c1cc2ccccc2o1	inactive: 104%
COc1cc(OC)c(C(=O)NCC2(N(C)C)CCCCC2)cc1OC	inactive: 102%
CC(C)c1ccc(NC2CCN(C(=O)OC(C)(C)C)CC2)cc1	inactive: 97%
CN(C)c1cccc(C(=O)NCC2(N3CCCCC3)CCCCC2)c1	inactive: 124%
COc1ccc(CN(CCCl)CCCl)cc1Cl	inactive: 89%
CCCOc1ccc(C(=O)NCC2(N(C)C)CCCCC2)cc1OC	inactive: 98%
CN1CCC(Nc2cccc(F)c2)CC1	inactive: 98%
N#CC1(Nc2ccccc2)CCN(CCc2ccccc2)CC1	inactive: 114%
CCN1CCC(Nc2ccc(Cl)cc2)CC1	inactive: 106%
O=C(NCC1(N2CCCCC2)CCCCC1)c1cccc([N+](=O)[O-])c1	inactive: 101%
O=C(NCC1(N2CCCCC2)CCCCC1)c1ccc(OC(F)F)cc1	inactive: 109%
COc1cc(C(=O)NCC2(N3CCCCC3)CCCCC2)ccc1OC(F)F	inactive: 104%
O=C(NCC1(N2CCOCC2)CCCCC1)c1cc(=O)[nH]c2ccccc12	inactive: 101%
CN1CCN(CCOC(=O)C(O)(c2ccccc2)c2ccccc2)CC1	inactive: 106%
COc1ccc(NC2CCN(C(=O)OC(C)(C)C)CC2)cc1	inactive: 88%
O=C(NCC1(N2CCCCC2)CCCCC1)c1cccc(C(F)(F)F)c1	inactive: 93%
